# Measurements from PubChem BioAssay AID1778 (Sanford-Burnham Center for Chemical Genomics, 2009).
# Chains of the proteins cited; added tags and fusions are not shown. Lines headed by an entry give the natural chain unless they say otherwise; changes in a name come on top.
# UniProt P41145: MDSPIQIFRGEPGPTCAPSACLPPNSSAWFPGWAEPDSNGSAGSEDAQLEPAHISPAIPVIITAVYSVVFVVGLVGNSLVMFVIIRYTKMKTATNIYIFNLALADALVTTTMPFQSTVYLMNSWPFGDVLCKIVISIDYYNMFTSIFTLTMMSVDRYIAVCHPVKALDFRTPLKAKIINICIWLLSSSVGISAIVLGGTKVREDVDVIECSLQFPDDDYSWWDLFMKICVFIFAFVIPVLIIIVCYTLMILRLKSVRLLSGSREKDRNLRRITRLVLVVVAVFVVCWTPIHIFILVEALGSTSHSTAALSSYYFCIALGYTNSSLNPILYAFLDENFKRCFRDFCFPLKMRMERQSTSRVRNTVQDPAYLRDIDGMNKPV
# Some of the results follow. Entries with a potency or affinity are not part of this list. Active and inactive are the calls of the source. Cut-off read from the data, not from the text of the source: active = inhibition above about 50%; inactive = the rest.
# Molecular target: Kappa-type opioid receptor (Homo sapiens) (UniProt P41145)
# Test: KOR antagonists, beta-arrestin recruitment, cell-based, luminescence, uHTS (AID 1778)
# Conditions: antagonist mode, at 10 µM, hits give high values
row,SMILES,inhibition
1,O=C(Nc1ccccc1)N1CCn2c(nc3ccccc32)C1,inactive: -5.9%
2,O=C(Nc1ccc2c(c1)nc1n2CCN(C2CCCCC2)C1)c1ccco1,inactive: 14.3%
3,O=C(CSc1nc2ccccc2n1CC(=O)N1CCCC1)Nc1ccc2c(c1)OCO2,inactive: 32.5%
4,Cc1ccc2c(c1)C1CN(C)CCC1N2C(=S)Nc1ccc(OC(F)F)cc1 (configuration not stated),inactive: 0.3%
5,CC(=O)Nc1nc2ccccc2n1CCN(C)C,inactive: 16.8%
6,c1ccc2c(c1)nc1n2CCN1,inactive: -5.6%
7,CC1CCC2C(=O)N(c3ccc(NC4CCN(Cc5ccccc5)CC4)c([N+](=O)[O-])c3)C(=O)C2C1 (configuration not stated),inactive: -0.6%
8,CCCC(=O)Nc1nnc(/C=C/c2ccc(OC)cc2)s1,inactive: 9.1%
9,O=C(Cn1c(-c2cscn2)nc2ccccc21)Nc1ccc2ccccc2c1,inactive: 31.2%
10,Cn1c(=O)c2c(ncn2CC(=O)N2CCCc3ccccc32)n(C)c1=O,inactive: -3.4%
11,COc1cccc(CNC(=O)CCCCCNC(=O)N2CCn3c2nc2ccccc23)c1,inactive: -25.3%
12,O=P1(Nc2ccccn2)COc2ccccc2OC1,inactive: 26.6%
13,Cn1c(=O)c2c(ncn2CC(=O)N/N=C/C=C/c2ccccc2[N+](=O)[O-])n(C)c1=O,inactive: -0.4%
14,O=C(Cn1c(SCc2ccccc2)nc2ccccc21)N1CCOCC1,inactive: 15.3%
15,Cc1cc(C)cc(NC(=O)Cn2c(SCc3cc(C)ccc3C)nc3ccncc32)c1,inactive: -13.4%
16,Cn1c(=O)c2c(ncn2CC(=O)N2CCN(c3ccc(F)cc3)CC2)n(C)c1=O,inactive: -5.6%
17,CCCCNC(=O)CC1C(=O)N(Cc2ccccc2)C(C)c2nc3ccccc3n21 (configuration not stated),inactive: -3.5%
18,CCOP(=O)(NC(=NC(C)c1ccccc1)NC(C)c1ccccc1)OCC (configuration not stated),inactive: -0.7%
19,O=C(Cn1c(NCCO)nc2ccccc21)NCCc1ccc(F)cc1,inactive: -9%
20,CC(NC(=O)Cn1c(NCCO)nc2ccccc21)C1CC2CCC1C2 (configuration not stated),inactive: 0.2%
21,CCN(CC)CCn1c(NCc2cccc(OC)c2)nc2ccccc21,inactive: -45.5%
22,CCOc1ccc(N2CCn3c2nc2c3c(=O)n(CCc3ccccc3)c(=O)n2C)cc1,inactive: 30.5%
23,CCOC(=O)c1ccc(NC(=O)Cn2cnc3cc(C)c(C)cc32)cc1,inactive: -13.8%

row,SMILES,inhibition
1,Cc1ccc(-c2nc(N(C)C3CCN(C)CC3)c3ccccc3n2)cc1,inactive: -23.5%
2,CC(c1ccccc1)N1CCn2c(nc3cc(NC(=O)NC4CCCCC4)ccc32)C1 (configuration not stated),inactive: -16.6%
3,CC(C)NC(=O)CSc1nc2ccccc2n1CC(=O)N1CCc2ccccc21,inactive: -2.3%
4,Cn1c(=O)oc2cc(S(=O)(=O)N3CCCC(C(=O)N4CCn5c4nc4ccccc45)C3)ccc21 (configuration not stated),inactive: 0.6%
5,CN(C)C1(c2nnnn2CCOC(=O)Nc2ccc(Cl)cc2)CCCCC1,inactive: 18.5%
6,CNC(=O)Cn1c(=O)n(C)c2ccccc21,inactive: 5.6%
7,CC1c2nc3ccccc3n2C(CC(=O)NC2CC2)C(=O)N1Cc1ccccc1 (configuration not stated),inactive: 8.6%
8,CCN1C(=O)CC(N2CCC(Nc3ccc(F)cc3)CC2)C1=O (configuration not stated),inactive: 37%
9,CCOP(=O)(Nc1ccc(C)cn1)OCC,inactive: 21.2%
10,Cc1ccc2c(c1)C1CN(C)CCC1N2C(=S)Nc1cccnc1 (configuration not stated),inactive: 29.2%
11,N#CCC(=O)N/N=C\c1ccc(OC/C=C/c2ccccc2)cc1,inactive: 6.2%
12,FC(F)(F)c1cccc(-n2nnnc2C2(N3CCOCC3)CCCCC2)c1,inactive: 6.3%
13,Cc1cc(N2C(=O)CC(N3CCC(n4c(=O)[nH]c5ccccc54)CC3)C2=O)no1 (configuration not stated),inactive: -6.4%
14,CC(C)NC(=O)Cn1c(SCC(=O)N2CCc3ccccc3C2)nc2ccccc21,inactive: 9%
15,COc1cc(Cl)c(C)cc1NC(=O)Cn1c(NCCO)nc2ccccc21,inactive: 16.5%
16,Cc1ccc(SCc2nc3ccccc3n2CC(=O)Nc2ccc(Cl)cc2)cc1,inactive: -2.5%
17,CCCCNc1nc2ccccc2n1CC(=O)Nc1ccc2c(c1)OCCO2,inactive: 5.3%
18,CN1CCC2(CC1)Nc1nc(SCc3ccc(Cl)cc3)nn1C1=C2CN(C)CC1,inactive: -22.2%
19,COc1ccc(OCC(O)Cn2c(=N)n(CCN3CCOCC3)c3ccccc32)cc1 (configuration not stated),inactive: 15.7%
20,CN(C)CCn1c(NC(=O)c2ccc(Cl)cc2)nc2ccccc21,inactive: -59.6%
21,O=C(Cn1c(C(F)(F)F)nc2ccccc21)Nc1ccccc1C(=O)O,inactive: 24.7%
22,Clc1n[nH]nc1-c1nn[nH][15n]1,inactive: 2%
23,COc1ccc(/C=N/NC(=O)Cn2c(Cc3ccc(OC)c(OC)c3)nc3ccccc32)cc1OC,inactive: 39%

row,SMILES,inhibition
1,Cc1ccc(CSc2nc3ccncc3n2CC(=O)Nc2cc(C)cc(C)c2)cc1,inactive: 12.7%
2,NNC(=O)Cn1c(-c2nonc2N)nc2ccccc21,inactive: -4.3%
3,Cc1ccc(CNC(=O)CCCCCNC(=O)N2CCn3c2nc2ccccc23)cc1,inactive: -20%
4,S=C(Nc1ccccc1)N1CCn2c(nc3ccccc32)C1,inactive: 10.4%
5,O=C(Cn1c(CSc2ccccc2)nc2ccccc21)Nc1ccccc1,inactive: -6.6%
6,Cc1cc(C)cc(NC(=O)Cn2c(-c3ccccc3Cl)nc3ccccc32)c1,inactive: 19.5%
7,CC(C)(C)C(=O)NC(Sc1ncccn1)C(Cl)(Cl)Cl (configuration not stated),inactive: 15%
8,CCCC(=O)Nc1nnc(/C=C/c2ccccc2)s1,inactive: -8.8%
9,Cn1c(=O)c2ncn(CC(=O)Nc3cc(C(F)(F)F)ccc3N3CCOCC3)c2n(C)c1=O,inactive: 16%
10,Cn1c(=O)c2c(ncn2CC(=O)Nc2nnc(Cc3ccccc3)s2)n(C)c1=O,inactive: 5.5%
11,COc1cccc(NC(=S)N2CCn3c(nc4ccccc43)C2)c1,inactive: -4.3%
12,CC(C)C[C@H](NC(=O)N1CCn2c1nc1ccccc12)C(=O)NCc1ccc2c(c1)OCO2,inactive: 0.9%
13,Cc1ccc(OCC(O)Cn2c(=N)n(CCN3CCCCC3)c3ccccc32)cc1 (configuration not stated),inactive: 16.5%
14,N=c1n(CCN2CCCCC2)c2ccccc2n1CC(O)c1cccc(Br)c1 (configuration not stated),inactive: 3.5%
15,CCN(CC)CCn1c(NCc2ccco2)nc2ccccc21,inactive: -6.7%
16,Cc1nc2ccccc2n1CC(=O)N/N=C\C=C\c1ccccc1,inactive: 13.3%
17,CCc1cccc(NC(=O)Cn2c3[n+](c4ccc(C(F)(F)F)cc42)CCCCC3)c1,inactive: -9.1%
18,Cn1c(=O)n(Cc2ccccc2F)c(=O)c2c1nc1n2CCN1Cc1ccco1,inactive: -9.7%
19,Cn1c(=O)c2c(nc(N3CCCCC3)n2CCNC2=NCCC2)n(C)c1=O,inactive: 34.7%
20,CCN(CC)c1ccc(CNc2nc3ccccc3n2CCN2CCCCC2)cc1,inactive: -15.9%
21,Cn1c(=O)c2ncn(CC(=O)N/N=C/C=C/c3ccccc3)c2n(C)c1=O,inactive: -9.4%
22,COc1ccccc1C(=O)Nc1ccc2c(c1)nc1n2CCN(Cc2ccccc2)C1,inactive: -20.6%
23,Cc1ccc(NC(=O)C2CC(=O)Nc3nc4ccccc4n32)c(C)c1 (configuration not stated),inactive: 15.3%

row,SMILES,inhibition
1,O=C(CCNC(=O)N1CCn2c1nc1ccccc12)NCc1ccccc1,inactive: -3.4%
2,COc1ccc(N(C(=O)Cn2cnc3ccccc32)C(C(=O)NC2CCCCC2)c2ccccc2)cc1 (configuration not stated),inactive: 19.9%
3,Cc1ccc2c(c1)C1CN(C)CCC1N2C(=O)c1cccc(S(=O)(=O)N2CC(C)CC(C)C2)c1 (configuration not stated),inactive: -27.8%
4,CN(C(=O)Cc1ccc(Cl)c(Cl)c1)[C@@H]1CCCC[C@H]1N1CCCC1,inactive: -21%
5,CC(C)/C=N\N=C(\N)N[N+](=O)[O-],inactive: -0.7%
6,COc1ccc(CCNC(=O)CCCCCNC(=O)N2CCn3c2nc2ccccc23)cc1OC,inactive: 3.2%
7,O=C(Nc1nc2ccccc2n1CCN1CCOCC1)c1ccc(COc2ccccc2Br)o1,inactive: -27.3%
8,O=C(Cn1c(CO)nc2ccccc21)NCc1ccc2c(c1)OCO2,inactive: 24.8%
9,Cc1cccc(N2CCN(C(=O)Cn3cnc4c3c(=O)n(C)c(=O)n4C)CC2)c1C,inactive: 27.6%
10,O=C(Cn1c(COc2ccc(Cl)cc2)nc2ccccc21)NCC(F)(F)F,inactive: 7.8%
11,O=[As](O)(c1ccccc1Br)c1ccccc1Br,inactive: 15.2%
12,O=C(Nc1nc2ccccc2n1CCN1CCCCC1)c1ccc(Cl)cc1,inactive: -23.7%
13,CC1CN(C(=O)Cn2c(C(F)(F)F)nc3ccccc32)CC(C)O1 (configuration not stated),inactive: 28.9%
14,Fc1ccc(Cn2nnnc2CN2CCC(n3nnc4cc(C(F)(F)F)ccc43)CC2)cc1,inactive: 16.4%
15,CCOC(=O)Cn1c(=O)c2c(nc3n2CCN3c2ccc(C)cc2)n(C)c1=O,inactive: 13.3%
16,CN(C)CCCNC(=S)N1CCn2c(nc3ccccc32)C1,inactive: 27.7%
17,COCCN(C(=O)Cn1c(C(F)(F)F)nc2ccccc21)c1c(N)n(Cc2ccccc2)c(=O)[nH]c1=O,inactive: 22.2%
18,Brc1ccc(/C=N/c2nc3ccccc3n2CCN2CCOCC2)cc1,inactive: 15.4%
19,c1coc(CNc2nc3ccccc3n2CCN2CCOCC2)c1,inactive: -53.2%
20,Cc1cccc(Cn2c(=O)c3c(nc4n3CCN4Cc3ccco3)n(C)c2=O)c1,inactive: -24.4%
21,Cc1nn(-c2ccccc2)c2c1P(=O)(N1CCOCC1)N(C)C(c1ccccc1)=N2 (configuration not stated),inactive: -20.9%
22,CCN(CC)c1ccc(NC(=O)Cn2c(C(C)NC(=O)c3ccccc3)nc3ccccc32)cc1 (configuration not stated),inactive: 17%
23,Cc1ccc(C(=O)OC2CN3CCC2CC3)cc1 (configuration not stated),inactive: 17.1%
